These results are taken from patent US20090023682A1, “Composition Comprising Dietary Fat Complexer and Methods of Using Same” (published 2009).

Data set [1] in a line: Gastrointestinal side effects after a fatty meal (pizza and ice cream) in a healthy person. The note with it: 1 capsule (120 mg), then 2 pieces of pizza and a bowl of ice cream.
Data set [2] relates to gastrointestinal lipases (gastric lipase, carboxylester lipase, pancreatic lipase). As to conditions: cited from earlier work.

As for `CCCCCCCCCCC[C@@H](C[C@@H]1OC(=O)[C@H]1CCCCCC)OC(=O)[C@H](CC(C)C)NC=O`, in data set [1], the “duration of passing bright orange oil after diarrhea stopped” value is recorded as “about 2 hours” and the “time to onset of severe cramping” value is no more than 1 h. The “fraction of normal lipase activity inhibited” value in data set [2] is listed as “about ⅓”.
